pIC50, pKi: −log10 of the molar value.
Biological target: human V1a receptor (Homo sapiens, UniProt P37288)
Assay: Human vasopressin V1a receptor binding assay (3H-AVP competition, hV1a CHO cells)

Amino acid sequences for entries named in this document (tags omitted).
UniProt P37288, whole entry: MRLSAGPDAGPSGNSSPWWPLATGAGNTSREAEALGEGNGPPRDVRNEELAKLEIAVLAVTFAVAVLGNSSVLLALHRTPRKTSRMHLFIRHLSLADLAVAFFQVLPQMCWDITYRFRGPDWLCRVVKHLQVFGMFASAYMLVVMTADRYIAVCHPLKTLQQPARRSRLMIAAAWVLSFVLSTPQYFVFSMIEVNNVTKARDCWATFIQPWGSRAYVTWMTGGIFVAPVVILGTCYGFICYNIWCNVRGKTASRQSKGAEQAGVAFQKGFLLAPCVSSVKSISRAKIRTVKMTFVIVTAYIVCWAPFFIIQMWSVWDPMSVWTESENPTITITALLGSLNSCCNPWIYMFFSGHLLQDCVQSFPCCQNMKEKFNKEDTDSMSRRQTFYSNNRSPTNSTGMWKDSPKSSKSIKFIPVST

SMILES: O=C(NCc1cccc(C(F)(F)F)c1)[C@H](CCC(=O)N1CCC(N2CCCC2)CC1)N1C(=O)[C@@H](N2C(=O)OC[C@@H]2c2ccccc2)[C@H]1/C(Cl)=C/c1ccccc1
- pIC50 (read-out: V1a Binding Affinity IC50, CHO cells expressing human V1a): 7.96
- pKi (read-out: V1a Ki, CHO cells expressing human V1a): 8.17

Source: patent US11319306B2, “Compositions and methods for treating neurodegenerative diseases” (Azevan Pharmaceuticals, Inc., priority 2014, dated 2022)
